Reference: US20030055065A1, “Tricyclic amide and urea compounds useful for inhibition of G-protein function and for treatment of proliferative diseases” (priority 1993, published 2003)

Chains of the proteins cited; added tags and fusions are not shown.
UniProt P53610, whole entry: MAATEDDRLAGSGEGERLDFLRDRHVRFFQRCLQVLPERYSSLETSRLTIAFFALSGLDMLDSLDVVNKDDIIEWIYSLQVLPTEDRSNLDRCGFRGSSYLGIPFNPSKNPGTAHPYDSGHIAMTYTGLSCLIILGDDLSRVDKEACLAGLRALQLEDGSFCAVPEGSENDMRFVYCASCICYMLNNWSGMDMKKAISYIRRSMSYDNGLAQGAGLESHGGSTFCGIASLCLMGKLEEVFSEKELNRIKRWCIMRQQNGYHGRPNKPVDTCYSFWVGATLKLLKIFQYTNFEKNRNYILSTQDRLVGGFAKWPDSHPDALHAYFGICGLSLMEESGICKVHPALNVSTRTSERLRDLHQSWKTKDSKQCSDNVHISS
UniProt Q02293, whole entry: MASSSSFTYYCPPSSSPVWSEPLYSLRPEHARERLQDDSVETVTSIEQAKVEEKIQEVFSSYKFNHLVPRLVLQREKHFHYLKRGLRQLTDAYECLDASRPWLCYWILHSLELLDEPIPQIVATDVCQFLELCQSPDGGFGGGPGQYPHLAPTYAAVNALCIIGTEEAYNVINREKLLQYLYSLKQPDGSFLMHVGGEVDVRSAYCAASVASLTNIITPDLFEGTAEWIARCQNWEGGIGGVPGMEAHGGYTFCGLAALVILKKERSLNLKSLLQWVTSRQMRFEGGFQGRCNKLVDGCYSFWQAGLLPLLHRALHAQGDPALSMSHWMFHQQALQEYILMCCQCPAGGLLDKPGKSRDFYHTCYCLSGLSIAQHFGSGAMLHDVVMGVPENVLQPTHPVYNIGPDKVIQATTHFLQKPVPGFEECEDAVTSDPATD

Assays:
[1] = target: geranylgeranyl protein transferase (GGPT) I (Rattus norvegicus, UniProt P53610+Q04631); experiment: Inhibition of geranylgeranyl protein transferase I (Ras-CVLL as acceptor); assay type: biochemical; details: read-out: GGPT IC50; enzyme inhibition
[2] = test system: Ras-CVLS processing in COS monkey kidney cells; experiment: COS cell assay: Ras-CVLS processing (Western blot); assay type: cell-based; details: read-out: Inhibition of Ras Processing IC50
[3] = target: farnesyl protein transferase (FPT), partially purified from rat brain (Rattus norvegicus, UniProt Q02293+Q04631); experiment: Inhibition of farnesyl protein transferase (transfer of [3H]farnesyl to Ras-CVLS); assay type: biochemical; details: read-out: FPT IC50, Ras-CVLS farnesylation
[4] = test system: Normal human HEPM fibroblasts; experiment: Cell Mat Assay: density of mat cells (mIC50); assay type: cell-based; details: read-out: Normal IC50, Mat assay
[5] = test system: T24-BAG4 human bladder carcinoma cells expressing an activated H-ras gene; experiment: Cell Mat Assay: tumor cell colony inhibition (tIC50); assay type: cell-based; details: read-out: Tumor IC50, Mat assay; inhibition of tumor cell growth

IC50 [1] [µM]	SMILES	IC50 [2] [nM]	IC50 [3] [nM]	IC50 [4] [µM]	IC50 [5] [µM]
35.1	Cc1ccc2c(n1)C(=C1CCN(C(=O)Cc3ccncc3)CC1)c1ccc(Cl)cc1CC2	> 10000	930		
	CC(C(=O)N1CCC(=C2c3ccc(Cl)cc3CCc3cccnc32)CC1)c1ccncc1 (stereo not shown)	2800	1110	> 50	8
